Data: PubChem BioAssay AID493091 (Sanford-Burnham Center for Chemical Genomics, 2011)
The list shows a part of the results, in another mix than the full data. Activity calls are given as the source filed them.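 How the source made its calls: active means inhibition above about 50% at 20 µM (limit read from the data); inactive means the rest.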

Sequences of proteins named here, by UniProt entry; tags and fusion partners are left off. A change or cut given only in a name is not applied to a line headed by its entry.
UniProt Q9GZU7: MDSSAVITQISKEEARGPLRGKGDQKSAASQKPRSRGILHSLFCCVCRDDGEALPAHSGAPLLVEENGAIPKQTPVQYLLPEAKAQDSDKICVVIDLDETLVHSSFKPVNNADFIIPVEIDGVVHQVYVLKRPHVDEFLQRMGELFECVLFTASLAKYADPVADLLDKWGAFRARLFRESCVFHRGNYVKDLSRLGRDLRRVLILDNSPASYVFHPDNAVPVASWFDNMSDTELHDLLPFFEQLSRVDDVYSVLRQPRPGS

Target: Carboxy-terminal domain RNA polymerase II polypeptide A small phosphatase 1 (Homo sapiens) (UniProt Q9GZU7)
Experiment: inhibition of human SCP1 dephosphorylation activity – biochemical, colorimetric, uHTS, primary screen (AID 493091);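 further: plate controls were DMSO wells with enzyme for no effect and wells lacking enzyme for full effect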
Conditions: Recombinant Scp1, phosphopeptide, malachite green phosphate absorbance; at 20 µM; active compounds read high
How it was run: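 System: SCP-1 catalytic domain; Reagent: Phospho 17-mer peptide substrate; Doses: one concentration, 20 µM, with 1.0% DMSO; Incubation: 45 min room-temperature reaction, 5 min colour, 30 min stabiliser; Signal: Phosphate-binding colour reagent, absorbance read at 630 nm.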

| Structure (SMILES) | inhibition |
| --- | --- |
| CC1CCNP(=O)(N(CCCl)CCCl)O1 (stereo not drawn) | inactive: -0.04% |
| CCCCOc1ccc(C(=O)NCC2(N3CCCCC3)CCCCC2)cc1OC | inactive: -2.31% |
| Cc1cc(SC(NC(=O)c2ccccc2)C(Cl)(Cl)Cl)nc(C(C)C)n1 (stereo not drawn) | inactive: 1.32% |
| O=C(OC1CN2CCC1CC2)c1cccc([N+](=O)[O-])c1 (stereo not drawn) | inactive: -12.1% |
| CCOC(=O)c1ccc(NC(=O)C(C)(CCl)SC)cc1 (stereo not drawn) | inactive: 0.35% |
| CCC(C)N(CC(C)C)C(=S)SC(NC(C)=O)C(Cl)(Cl)Cl (stereo not drawn) | inactive: -17.3% |
| COP1(=S)c2c(C)nn(CCC#N)c2N=C(c2ccc(F)cc2)N1C (stereo not drawn) | inactive: -2.46% |
| O=C(COc1ccccc1)OC1CN2CCC1CC2 (stereo not drawn) | inactive: 2.71% |
| O=C(Nc1ccncc1[N+](=O)[O-])c1ccc([N+](=O)[O-])cc1[N+](=O)[O-] | inactive: -7.31% |
| COc1ccccc1CNC(=O)COC(=O)C(O)(c1ccccc1)c1ccccc1 | inactive: -7.58% |
| CC(C)/C=N\N=C(\N)N[N+](=O)[O-] | inactive: -2.34% |
| CN(C(=O)Cc1ccc(Cl)c(Cl)c1)[C@@H]1CCCC[C@H]1N1CCCC1 | inactive: 1.31% |
| CC1(CBr)Cn2c(nc3ccccc3c2=O)S1 (stereo not drawn) | inactive: -10.1% |
| O=P1(Nc2ccccn2)COc2ccccc2OC1 | inactive: 0.45% |
| CCC1=CC2Cc3nc4ccc(Cl)cc4c(N)c3C(C1)C2 (stereo not drawn) | inactive: -2.03% |
| CCOP(=O)(NC(=NC(C)c1ccccc1)NC(C)c1ccccc1)OCC (stereo not drawn) | inactive: -4.42% |
| CCOP(=O)(Nc1ccc(C)cn1)OCC | inactive: 3.63% |
| CN(CCCl)Cc1cc(Cl)c(NC2=NCCN2)c(Cl)c1 | inactive: 3.84% |
| Clc1n[nH]nc1-c1nn[nH][15n]1 | inactive: -6.81% |
| CC(C)(C)C(=O)NC(Sc1ncccn1)C(Cl)(Cl)Cl (stereo not drawn) | inactive: 3.46% |
| O=P1(Nc2ncccn2)COc2ccccc2OC1 | inactive: -4.28% |
| Nc1cccc([As](=O)(O)c2ccccc2)c1 | inactive: -1.69% |
| O=[As](O)(c1cccs1)c1cccs1 | inactive: -4.44% |
| Cc1ccc(OCC(=O)OC2CN3CCC2CC3)cc1 (stereo not drawn) | inactive: 2.96% |
| O=P1(Nc2ccc(Br)cn2)COc2ccccc2OC1 | inactive: -8.38% |
| NS(=O)(=O)c1cccc(NC(=O)COC(=O)C(O)(c2ccccc2)c2ccccc2)c1 | inactive: -3.29% |
| Cc1nn(-c2ccccc2)c2c1P(=O)(N1CCOCC1)N(C)C(c1ccccc1)=N2 (stereo not drawn) | inactive: -2.62% |
| CC1CCC(C(C)C)C(OP(=O)(Nc2ccccn2)c2ccccc2)C1 (stereo not drawn) | inactive: 5.59% |
